Results on one molecule are retold here after US20070020267A1 (published 2007).

By UniProt entry, the sequences of proteins in these tests, tags left out. Chains listed by the source or under a name are the forms on record and can include a tag or linker.
UniProt P15692, other isoform, or with tags, fused parts or gaps: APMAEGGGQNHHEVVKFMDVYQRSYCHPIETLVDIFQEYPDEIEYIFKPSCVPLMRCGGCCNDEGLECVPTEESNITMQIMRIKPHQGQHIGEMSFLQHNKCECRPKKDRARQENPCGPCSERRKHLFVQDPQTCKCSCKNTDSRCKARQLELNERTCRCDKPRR

The assay has as its target human VEGF (hVEGF) (human, UniProt P15692 27-191). The assay can be described thus: competition.

By IC50 is commonly meant the concentration needed to halve the response being measured.

B1: G6-23 Fab (Fab, V domains shown)
VH: EVQLVESGGGLVQPGGSLRLSCAASGFTISDYWIHWVRQAPGKGLEWVAGITPAGGYTYYADSVKGRFTISADTSKNTAYLQMNSLRAEDTAVYYCARFVFFLPYAMDYWGQGTLVTVSS
VL: DIQMTQSPSSLSASVGDRVTITCRASQDVSTAVAWYQQKPGKAPKLLIYSASFLYSGVPSRFSGSGSGTDFTLTISSLQPEDFATYYCKQGYANPWTFGQGTKVEIKR
Molecule B1 returned an IC50 of 0.01 nM.
